For data set [1] the following is noted: Lee, Journal of Controlled Release, 13, 213 (1990), cited from earlier work.
For data set [2], the system named is intestinal aminopeptidases. Nature of the data set: Protection against degradation by aminopeptidase in vivo: YdAGFdL bioavailability after ileal dosing. As to conditions: YdAGFdL alone, no protecting agent, ileally fistulated rats. On the procedure: The pentapeptide enkephalin analogue D-AJa-D-Leu-enkephalin (YdAGFdL) (1.0 mg) was directly ileally dosed to chronically ileally fistulated rats. Radiolabeled YdAGFdL (1.12 microgram) was dosed with each of four protecting agents: (1) decanted soy flour, <1K MW; (2) decanted and ultrafitered soy flour, 1K-30K MW; (3) pepsin-treated (FMC ACTI-MOD) soy flour, <30K MW; (4) the potent aminopeptidase inhibitor amastatin (positive control). Blood was collected from a jugular vein cannula at various times post-dosing, and intact YdAGFdL was quantified by a radiometric thin layer chromatography (TLC) method utilizing reverse phase KC-18 TLC plates (Whatman Co.). The TLC plates were developed with 30:701 -propanol/0.1 M phosphate buffer (pH 4.1).

insulin: in data set [1] (oral), the “bioavailability following oral administration” value is listed as 0.05%. The “bioavailability following vaginal administration” value in data set [1] (vaginal) is recorded as 18%.

D-Ala-D-Leu-enkephalin [None (control)]: the “% YdAGFdL Bioavailability” value in data set [2] is given as 1.78 ± 0.46%.
